Reference: patent US20180353627A1, “RADIOLABELED DISINTEGRINS AS BRACHYTHERAPY AGENTS” (UNIVERSITY OF SOUTHERN CALIFORNIA, priority 2015, published 2018)

Sequences of proteins named here, by UniProt entry; tags and fusion partners are left off. Residues count along the entry.
UniProt P05106, 27-788: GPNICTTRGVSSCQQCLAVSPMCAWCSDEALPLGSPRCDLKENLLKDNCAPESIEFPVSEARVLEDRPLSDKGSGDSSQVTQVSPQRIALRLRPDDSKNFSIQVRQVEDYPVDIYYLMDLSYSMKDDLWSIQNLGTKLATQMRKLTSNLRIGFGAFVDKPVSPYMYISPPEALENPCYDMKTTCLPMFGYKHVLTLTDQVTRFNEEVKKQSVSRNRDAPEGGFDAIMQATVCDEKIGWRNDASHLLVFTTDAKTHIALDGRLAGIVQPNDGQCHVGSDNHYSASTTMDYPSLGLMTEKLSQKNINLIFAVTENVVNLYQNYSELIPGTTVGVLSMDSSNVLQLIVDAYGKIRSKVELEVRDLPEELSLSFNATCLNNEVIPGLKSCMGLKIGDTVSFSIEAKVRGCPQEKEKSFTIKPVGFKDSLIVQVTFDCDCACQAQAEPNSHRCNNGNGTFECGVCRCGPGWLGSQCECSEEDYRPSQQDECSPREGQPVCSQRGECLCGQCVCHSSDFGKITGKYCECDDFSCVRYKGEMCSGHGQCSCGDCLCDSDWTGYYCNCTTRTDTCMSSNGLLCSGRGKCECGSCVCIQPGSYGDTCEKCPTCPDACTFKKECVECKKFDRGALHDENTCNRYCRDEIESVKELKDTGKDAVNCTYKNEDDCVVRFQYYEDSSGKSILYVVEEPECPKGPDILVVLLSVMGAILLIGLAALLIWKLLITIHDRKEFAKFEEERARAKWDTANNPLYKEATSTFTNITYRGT
UniProt P06756, 891-1048 partner limits assumed: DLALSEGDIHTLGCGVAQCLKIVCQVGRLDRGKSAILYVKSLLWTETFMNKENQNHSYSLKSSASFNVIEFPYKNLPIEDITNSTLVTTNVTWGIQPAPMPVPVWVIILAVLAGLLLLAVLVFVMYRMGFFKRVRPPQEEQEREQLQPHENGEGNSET
UniProt P06756, 31-889 limits assumed: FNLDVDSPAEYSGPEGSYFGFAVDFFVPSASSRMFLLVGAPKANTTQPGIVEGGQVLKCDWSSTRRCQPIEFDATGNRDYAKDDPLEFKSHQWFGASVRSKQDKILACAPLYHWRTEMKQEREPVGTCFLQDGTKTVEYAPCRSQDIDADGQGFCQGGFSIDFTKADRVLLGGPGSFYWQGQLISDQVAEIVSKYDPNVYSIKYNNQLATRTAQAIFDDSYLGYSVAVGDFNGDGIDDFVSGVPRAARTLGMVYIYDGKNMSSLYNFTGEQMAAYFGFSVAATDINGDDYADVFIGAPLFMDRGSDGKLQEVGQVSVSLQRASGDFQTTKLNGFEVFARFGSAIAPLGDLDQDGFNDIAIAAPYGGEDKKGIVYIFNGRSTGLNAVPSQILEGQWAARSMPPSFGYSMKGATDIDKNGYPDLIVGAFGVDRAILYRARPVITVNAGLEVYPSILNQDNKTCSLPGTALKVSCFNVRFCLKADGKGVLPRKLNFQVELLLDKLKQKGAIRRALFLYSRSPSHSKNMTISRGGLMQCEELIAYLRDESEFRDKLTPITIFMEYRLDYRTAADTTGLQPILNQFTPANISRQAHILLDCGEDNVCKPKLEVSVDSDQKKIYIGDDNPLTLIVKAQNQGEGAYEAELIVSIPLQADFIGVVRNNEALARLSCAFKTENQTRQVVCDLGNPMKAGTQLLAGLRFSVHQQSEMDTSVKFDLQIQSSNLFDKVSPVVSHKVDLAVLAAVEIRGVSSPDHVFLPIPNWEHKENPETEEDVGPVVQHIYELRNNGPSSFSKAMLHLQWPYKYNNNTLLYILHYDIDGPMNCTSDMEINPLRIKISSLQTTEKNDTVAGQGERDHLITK

Target: αvβ3 (Homo sapiens, UniProt P05106+P06756)
Assay: Fluorescence polarization binding of FITC-labeled disintegrins to soluble integrin αvβ3
Details: native VCN, read-out: binding affinity to αvβ3
Experimental: The specific activity of iodinated VCN is determined by separation of the material by SDS-PAGE, and counting bands of VCN cut from the gel. […] Further, ^131I-VCN retained essentially 100% radioiodine during dialysis against phosphate buffered saline, pH 7.4, for 15 days. […] Binding kinetics were calculated from the fluorescence anisotropy data generated by steady state binding of FITC-labeled disintegrins to either purified (αvβ3, αvβ5) or recombinant (α5β1) functional human integrins. The dissociation constants for interactions of either CN or VCN with soluble integrins were determined by Scatchard analysis using a non-linear curve fit.

**Q.** For vicrostatin [VCN], which Kd is on record?
**A.** ~7 nM
